Measurements from patent EP4606801A1, “FUSED HETEROCYCLIC COMPOUND AND USE THEREOF” (Chengdu Zenitar Biomedical Technology Co., Ltd., priority 2022, dated 2024).
Where two headings read alike, the source gives them in different places.

Key:
in vivo = settings: male, Balb/c, mouse, po, 1 mg/kg
[1] = mouse, in vivo, po, 1 mg/kg

Compound	AUC(0-t) (in vivo) [µg·h/mL]	Cmax (in vivo) [ng/mL]	half-life (in vivo) [h]	AUC(0-t) [1] [µg·h/mL]	Cmax [1] [ng/mL]	half-life [1] [h]
[2H]C([2H])(c1cnc2cc(CC)c(=O)[nH]c2c1)N1CC=C(c2ccc(C(=O)NC)nc2)CC1 [Compound 15, 1'-((7-ethyl-6-oxo-5,6-dihydro-1,5-naphthyridin-3-yl)methyl-d2)-N-methyl-1',2',3',6'-tetrahydr o-[3,4'-bipyridine]-6-carboxamide]	115	6420	14.1	–	–	–
CCc1cc2ncc(CN3CC=C(c4ccc(C(=O)NC)nc4)CC3)cc2[nH]c1=O [Compound 1]	235	7610	19.7	–	–	–
[2H]C([2H])([2H])NC(=O)c1ccc(C2=CCN(Cc3cnc4cc(C([2H])([2H])C([2H])([2H])[2H])c(=O)[nH]c4c3)CC2)cn1 [Compound 11, 1'-((7-(ethyl-d5)-6-oxo-5,6-dihydro-1,5-naphthyridin-3-yl)methyl)-N (methyl-d3)-1',2',3',6'-tet rahydro-[3,4'-bipyridine]-6-carboxamide]	91	6590	15.6	–	–	–
[2H]C([2H])([2H])Cc1cc2ncc(CN3CC=C(c4ccc(C(=O)NC)nc4)CC3)cc2[nH]c1=O [Compound 16, 1'-((7-(ethyl-2,2,2-d3)-6-oxo-5,6-dihydro-1,5-naphthyridin-3-yl)methyl)-N-methyl-1',2',3',6'-t etrahydro-[3,4'-bipyridine]-6-carboxamide]	88.1	7160	8.92	–	–	–
[2H]C([2H])([2H])NC(=O)c1ccc(C2=CCN(Cc3cnc4cc(CC)c(=O)[nH]c4c3)CC2)cn1 [Compound 2, 1'-((7-ethyl-6-oxo-5,6-dihydro-1,5-naphthyridin-3-yl)methyl)-N-(methyl-d3)-1',2',3',6'-tetrahy dro-[3,4'-bipyridine]-6-carboxamide]	141	7620	14.3	–	–	–
[2H]C(c1cnc2cc(CC)c(=O)[nH]c2c1)N1CC=C(c2ccc(C(=O)NC)nc2)CC1 (stereo not drawn) [Compound 3]	–	–	–	122	7460	11.5
[2H]C([2H])([2H])C([2H])([2H])c1cc2ncc(CN3CC=C(c4ccc(C(=O)NC)nc4)CC3)cc2[nH]c1=O [Compound 6, 1'-((7-(ethyl-d5)-6-oxo-5,6-dihydro-1,5-naphthyridin-3-yl)methyl)-N-methyl-1',2',3',6'-tetrahy dro-[3,4'-bipyridine]-6-carboxamide]	188	8210	16.2	–	–	–
